Assay results from patent EP4840453A1, “CANCER TREATMENT AGENT CONTAINING CLK INHIBITOR AS ACTIVE INGREDIENT” (dated 2026).

Key:
NCI-H661 = assay: Cell proliferation assay (ATPlite 1Step), single agents and combination with Compound A, curve-shift and CI; 72 h culture, 120 h for EPZ-6438, JQ1, MLN-4924, MLN-7243, MPI-0479605, NMS-P715
HL-60 = assay: as above
[1] = blending ratio (Compound A : combined compound) 1:4, Fa 90
[2] = blending ratio (Compound A : combined compound) 4:1, Fa 90
[3] = NCI-H661, Compound A + combined compound at fixed concentration 1 µM, Fa 50
[4] = blending ratio (Compound A : combined compound) 1:1, Fa 90
[5] = NCI-H661, Compound A + combined compound at fixed concentration 3.2 µM, Fa 50
[6] = NCI-H661, Compound A + combined compound at fixed concentration 3.2 µM, Fa 75
[7] = blending ratio (Compound A : combined compound) 1:1, Fa 50
[8] = blending ratio (Compound A : combined compound) 1:1, Fa 75
[9] = blending ratio (Compound A : combined compound) 1:4, Fa 50
[10] = blending ratio (Compound A : combined compound) 4:1, Fa 50
[11] = blending ratio (Compound A : combined compound) 4:1, Fa 75
[12] = Compound A : combined compound 4:1, Fa 75, 72 h culture
[13] = NCI-H661, blending ratio (Compound A : combined compound) 1:1, Fa 50
[14] = NCI-H661, blending ratio (Compound A : combined compound) 1:4, Fa 50
[15] = blending ratio (Compound A : combined compound) 1:4, Fa 75
[16] = Compound A + combined compound at fixed concentration 3.2 µM, Fa 50
[17] = NCI-H661, blending ratio (Compound A : combined compound) 4:1, Fa 75

NS(=O)(=O)OC[C@H]1C[C@@H](Nc2ccnc3cc(-c4cccc(SC(F)(F)F)c4)nn23)[C@H](O)[C@@H]1O was tested, and the CI (NCI-H661; Compound A : combined compound 4:1, Fa 75, 120 h culture) was 0.90 and the CI (NCI-H661; Compound A : combined compound 4:1, Fa 90, 120 h culture) was 0.77.
In the case of CN(Cc1cnc2nc(N)nc(N)c2n1)c1ccc(C(=O)N[C@@H](CCC(=O)O)C(=O)O)cc1, the CI (HL-60; [1]) is reported as 0.70 and the CI (HL-60; [2]) is reported as 0.93.
Cc1sc2c(c1C)C(c1ccc(Cl)cc1)=N[C@@H](CC(=O)OC(C)(C)C)c1nnc(C)n1-2 was tested, and the CI (NCI-H661; Compound A : combined compound 1:1, Fa 75, 120 h culture) was 0.44, the CI (NCI-H661; Compound A : combined compound 1:1, Fa 90, 120 h culture) was 0.43 and the CI (NCI-H661; Compound A : combined compound 1:4, Fa 75, 120 h culture) was 0.35. The CI (NCI-H661; Compound A : combined compound 1:4, Fa 90, 120 h culture) was 0.58, the CI (NCI-H661; Compound A : combined compound 4:1, Fa 50, 120 h culture) was 0.78 and the CI (HL-60; [1]) was 0.86.
In the case of N#CCNC(=O)c1ccc(-c2ccnc(Nc3ccc(N4CCOCC4)cc3)n2)cc1, the CI (NCI-H661; [3]) is reported as 0.93.
Compound CO[C@@]12[C@H](COC(N)=O)C3=C(C(=O)C(C)=C(N)C3=O)N1C[C@@H]1N[C@@H]12 has a CI (NCI-H661; Compound A : combined compound 1:1, Fa 90, 72 h culture) of 0.36, a CI (NCI-H661; Compound A : combined compound 4:1, Fa 90, 72 h culture) of 0.07 and a CI (HL-60; [4]) of 0.96. For the same compound, the CI (HL-60; [1]) was 0.97 and the CI (HL-60; [2]) was 0.93.
CC1(C)CCC(c2ccc(Cl)cc2)=C(CN2CCN(c3ccc(C(=O)NS(=O)(=O)c4ccc(N[C@H](CCN5CCOCC5)CSc5ccccc5)c(S(=O)(=O)C(F)(F)F)c4)cc3)CC2)C1 was tested, and the CI (NCI-H661; [5]) was 0.88, the CI (NCI-H661; [6]) was 0.81 and the CI (HL-60; [7]) was 1.05. The CI (HL-60; [8]) was 0.67, the CI (HL-60; [4]) was 0.60 and the CI (HL-60; [9]) was 1.06. The CI (HL-60; [1]) was 0.67, the CI (HL-60; [10]) was 1.10 and the CI (HL-60; [11]) was 0.91. The CI (HL-60; [2]) was 0.79.
C=CCn1c(=O)c2cnc(Nc3ccc(N4CCN(C)CC4)cc3)nc2n1-c1cccc(C(C)(C)O)n1 was tested, and the CI (NCI-H661; Compound A : combined compound 1:4, Fa 75, 72 h culture) was 0.39, the CI (NCI-H661; [12]) was 0.93 and the CI (HL-60; [9]) was 0.80. For the same compound, the CI (HL-60; [11]) was 0.81.
In the case of CC1=C(/C=C/C(C)=C/C=C/C(C)=C/C(=O)O)C(C)(C)CCC1, the CI (HL-60; [7]) is reported as 0.79 and the CI (HL-60; [10]) is reported as 0.80.
Work on CCc1c2c(nc3ccc(O)cc13)-c1cc3c(c(=O)n1C2)COC(=O)[C@]3(O)CC yielded a CI (NCI-H661; Compound A : combined compound 1:1, Fa 50, 72 h culture) of 1.04, a CI (NCI-H661; Compound A : combined compound 1:1, Fa 75, 72 h culture) of 0.61 and a CI (NCI-H661; Compound A : combined compound 1:4, Fa 50, 72 h culture) of 0.77. It also gave a CI (NCI-H661; [12]) of 0.43.
Work on Cn1c(=O)n(-c2ccc(C(C)(C)C#N)cc2)c2c3cc(-c4cnc5ccccc5c4)ccc3ncc21 yielded a CI (NCI-H661; [13]) of 0.88, a CI (NCI-H661; [14]) of 1.06 and a CI (NCI-H661; NCI-H661, blending ratio (Compound A : combined compound) 4:1, Fa 50) of 0.91. For the same compound, the CI (HL-60; [8]) was 0.86, the CI (HL-60; [15]) was 0.95 and the CI (HL-60; [11]) was 1.09. The CI (HL-60; [2]) was 1.02.
CNCc1ccc(-c2cc(-c3nc(-c4ccc(S(=O)(=O)C(C)C)cc4)cnc3N)on2)cc1 gave a CI (HL-60; [15]) of 1.02.
FC(F)(F)c1ccc(CNc2ccc(Cc3c[nH]c4ncc(Cl)cc34)cn2)cn1 showed a CI (NCI-H661; [5]) of 0.69, a CI (NCI-H661; [6]) of 0.17 and a CI (HL-60; [16]) of 0.78. For the same compound, the CI (HL-60; Compound A + combined compound at fixed concentration 3.2 µM, Fa 75) was 0.85 and the CI (HL-60; Compound A + combined compound at fixed concentration 3.2 µM, Fa 90) was 0.96.
With C[C@@H](Oc1cc(-c2cnn(C3CCNCC3)c2)cnc1N)c1c(Cl)ccc(F)c1Cl the CI (NCI-H661; NCI-H661, blending ratio (Compound A : combined compound) 1:1, Fa 90) was 0.54, the CI (NCI-H661; [17]) was 0.54 and the CI (NCI-H661; NCI-H661, blending ratio (Compound A : combined compound) 4:1, Fa 90) was 0.19.
For oxaliplatin, the CI (NCI-H661; [3]) was 0.77, the CI (HL-60; Compound A + combined compound at fixed concentration 1 µM, Fa 50) was 0.87 and the CI (HL-60; Compound A + combined compound at fixed concentration 1 µM, Fa 75) was 0.85. It also gave a CI (HL-60; Compound A + combined compound at fixed concentration 1 µM, Fa 90) of 0.83.
With C[C@@H]1COCCN1c1cc(-c2ccnn2C)c2ccnc(-c3ccn[nH]3)c2n1 the CI (HL-60; [1]) was 0.27 and the CI (HL-60; [10]) was 0.87.
For Nc1ccccc1NC(=O)c1ccc(CNC(=O)OCc2cccnc2)cc1, the CI (NCI-H661; [13]) was 0.95, the CI (NCI-H661; [17]) was 0.28 and the CI (HL-60; [8]) was 1.04. For the same compound, the CI (HL-60; [4]) was 0.78, the CI (HL-60; [11]) was 0.92 and the CI (HL-60; [2]) was 0.70.
In the case of Cc1ccc(NC(=O)c2ccc(CN3CCN(C)CC3)cc2)cc1Nc1nc(-c2cccnc2)cs1, the CI (NCI-H661; [5]) is reported as 0.90 and the CI (HL-60; [16]) is reported as 0.90.
Work on COc1cc([C@@H]2c3cc4c(cc3[C@@H](O[C@@H]3O[C@@H]5CO[C@@H](C)O[C@H]5[C@H](O)[C@H]3O)[C@H]3COC(=O)[C@H]23)OCO4)cc(OC)c1O yielded a CI (NCI-H661; [13]) of 0.70, a CI (NCI-H661; NCI-H661, blending ratio (Compound A : combined compound) 1:1, Fa 75) of 0.10 and a CI (NCI-H661; [14]) of 0.50. The CI (NCI-H661; NCI-H661, blending ratio (Compound A : combined compound) 1:4, Fa 75) was 0.10, the CI (NCI-H661; [17]) was 0.10 and the CI (HL-60; [4]) was 1.02. It also gave a CI (HL-60; [9]) of 0.77, a CI (HL-60; [15]) of 0.67 and a CI (HL-60; [10]) of 0.77.
